Laboratory results as given in patent US20010044447A1 (priority 1999, published 2001).

System: motoneurons (trophic activity produced by spinal astrocytes)
Type: cell-based, Wistar rats
Details: each product 0.1 μM; astrocyte monolayers exposed 24 hours, conditioned medium taken up 24 hours later; percentage of the number of motoneurons in cultures maintained with BDNF; vehicle alone 44 ± 1.41

Q: With `Nc1nc2ccc(OC(F)(F)F)cc2s1` [riluzole] as the compound, how does the “Motoneuronal survival in %” value read?
A: Its value is 68.0 ± 3%.
